# Measured values as given in patent publication US12194007B2, “Pharmaceutical composition for preventing or treating cancer, comprising gossypol, phenformin, and anticancer agent” (National Cancer Center, priority 2018, dated 2025).
# System: UACC62 cell line or an A375 cell line
# Experiment: SRB cell proliferation assay, melanoma cell lines
# Assay type: cell-based
# Details: vemurafenib 0.5 μM, cisplatin 10 μM or oxaliplatin 10 μM + gossypol 5 μM + phenformin 100 μM
smiles,measurement,value
O=C1[O][Pt]2([NH][C@@H]3CCCC[C@H]3[NH]2)[O]C1=O [oxaliplatin],synergistic effect of anticancer action when mixed with gossypol and phenformin,not exhibited
